Data on one substance can be found in PMC12138688, “Identification of Orthosteric GABAB Receptor Ligands by Virtual Screening and In Vitro Validation” (ACS Omega, 2025).

Protein sequences, listed by entry. Tags and fused reporters are not part of them. Residues count along the entry.
UniProt Q9UBS5, 15-961 limits assumed: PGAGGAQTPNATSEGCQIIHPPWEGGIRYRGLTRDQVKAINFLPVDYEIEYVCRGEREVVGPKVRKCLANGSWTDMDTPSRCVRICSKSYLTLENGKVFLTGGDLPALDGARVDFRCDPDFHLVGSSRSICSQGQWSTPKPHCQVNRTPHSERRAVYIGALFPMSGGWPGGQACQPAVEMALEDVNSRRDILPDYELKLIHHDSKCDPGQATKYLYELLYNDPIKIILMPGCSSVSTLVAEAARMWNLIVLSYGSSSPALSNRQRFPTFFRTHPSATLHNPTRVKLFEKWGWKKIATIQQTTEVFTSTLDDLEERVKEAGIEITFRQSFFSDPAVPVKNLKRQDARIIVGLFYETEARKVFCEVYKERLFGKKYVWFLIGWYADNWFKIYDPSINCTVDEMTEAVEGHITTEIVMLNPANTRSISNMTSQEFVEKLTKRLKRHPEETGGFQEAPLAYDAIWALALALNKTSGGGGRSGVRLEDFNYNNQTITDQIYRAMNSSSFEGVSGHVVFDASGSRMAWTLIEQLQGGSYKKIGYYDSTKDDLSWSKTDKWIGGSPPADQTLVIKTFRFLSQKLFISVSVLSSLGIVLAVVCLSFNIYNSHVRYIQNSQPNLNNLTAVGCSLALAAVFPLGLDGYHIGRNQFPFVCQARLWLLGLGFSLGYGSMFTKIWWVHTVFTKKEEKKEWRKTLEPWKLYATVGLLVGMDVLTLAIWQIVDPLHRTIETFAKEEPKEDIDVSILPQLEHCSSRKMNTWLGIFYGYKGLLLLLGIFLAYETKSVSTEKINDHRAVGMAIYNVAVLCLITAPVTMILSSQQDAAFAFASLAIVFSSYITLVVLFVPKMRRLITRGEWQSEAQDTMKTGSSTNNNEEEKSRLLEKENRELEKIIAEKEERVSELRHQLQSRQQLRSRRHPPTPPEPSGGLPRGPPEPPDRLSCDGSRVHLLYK

This assay has as its target T1, human GABAB-R (Homo sapiens, UniProt Q9UBS5).
T1 construct: purchased Eurofins 2150335; host or cells: Chem-1 cells
Description: [3H]CGP54626 radioligand competition binding assay. Background: Loss of bound radioactivity is the signal in a displacement assay; it reports binding, not function.

The IC50 is the midpoint of a concentration-inhibition curve. For orientation: Ki means the equilibrium dissociation constant of an inhibitor or competing ligand from its target. For CGP54626, the IC50 is 20 nM and the Ki is 4.5 nM.
